According to PMC9415951 (Viruses, 2022):

Target: bovine thrombin (Bos taurus, UniProt P00735)
Test: Thrombin inhibition assay (chromogenic substrate S-2238)
Format: biochemical
Conditions: Cheng-Prousoff from IC50; mean of three measurements; read-out: Enzyme Inhibition, Ki, Thrombin

## CC(C)N1CCC(C(=O)Nc2ccccc2OCc2cc(-c3ccc(Cl)s3)on2)CC1 [Compound 2]
  Ki: 11 µM
